Test results published in US4886915A, “Water soluble organic ammonium per halides” (priority 1988, dated 1989).

Key:
[1] = closed bottle, 29200 h
[2] = closed bottle, 17520 h
[3] = Vapor pressure of aqueous organic ammonium perbromides (isoteniscope); details: @ 26° C.; Table 9
[4] = Titration for oxidizable bromine (Standard Methods for the Examination of Water and Waste Water, Method 408A); details: Table 3; crystalline perbromide precipitated out of aqueous solution
[5] = water

Substance	Relative Change in % Br2 [1] [%]	Solubility [5]	further results
Diethanolammonium Perbromide [compound 23]	26.2	–	Relative Change in % Br2 [2]: 10.9%
Ethanolammonium Perbromide [Compound #17]	–	–	Vp [3]: 57 mmHg
Diethylammonium Perbromide [compound 15]	–	–	Tit. Ox. Br [4]: 47.9 % by Weight
Dipropylammonium Perbromide [compound 10]	–	10 g./100 g H2O	–
Diethanolammonium Perbromide [Compound #4]	18.9	–	–
1,6-Hexanediammonium [compound 16]	–	50	–

Where two headings read alike, the source gives them in different places.
